Test system: C2C12 cells
Experiment: Alkaline Phosphatase (ALP) functional activity assay in C2C12 cells
Format: cell-based, Mouse
Conditions: 500 nM, 6 days of culture
Method: Alkaline Phosphatase (ALP) Functional Activity Assay: C2C12 cells were plated into 12-well plates with 7,000 cells/well in 1 mL growth media. […] 1, 2, 3, or 4 in 0.1% DMSO was added (500 nM). Half the media was exchanged with fresh media containing compound every 48 hrs. After 6 days, media was removed, ALP Lysis Buffer (10 mM Tris-HCl pH 8.0, 1 mM MgCl2, and 1% Triton X100) added, and cell lysate obtained (10 min incubation at RT) by centrifugation (5 min at 3500× g at 4° C.). Para-nitrophenol phosphate (pNPP) (2 mg/mL) was incubated with 50 μl cell lysate (10 mins, 37° C.). After addition of […] 0.02 N NaOH, absorbance OD405 was measured. Protein concentration was determined by Bradford protein assay. Results of ALP activity were plotted as nM pNP hydrolyzed/mg total protein. After normalizing control samples (i.e., DMSO-treated samples) to one-fold, the fold-changes were plotted to indicate the relative ALP activity. […] This protocol was applied to hMSC and E15 cells as well.

B1: rhBMP-2: bone morphogenetic protein-2 (BMP-2) that is a potent cell differentiation factor; recombinant reference in Table 8 (protein, UniProt P12643 283-396, looked up)
Bone morphogenetic protein 2: QAKHKQRKRLKSSCKRHPLYVDFSDVGWNDWIVAPPGYHAFYCHGECPFPLADHLNSTNHAIVQTLVNSVNSKIPKACCVPTELSAISMLYLDENEKVVLKNYQDMVVEGCGCR
ALP activity fold-changes +/− SD, −matrix (absence of matrix, versus untreated (DMSO) cells): 4.0 ± 0.4 fold | ALP activity fold-changes +/− SD, +matrix (calcium phosphate ceramic 5 mg/mL): 7.1 ± 0.7 fold
